# Source: US9694016B2 (Novartis AG, priority 2013, dated 2017)
# Sequences of proteins named here, by UniProt entry; tags and fusion partners are left off.
# UniProt P04049, whole entry Y340E/Y341E: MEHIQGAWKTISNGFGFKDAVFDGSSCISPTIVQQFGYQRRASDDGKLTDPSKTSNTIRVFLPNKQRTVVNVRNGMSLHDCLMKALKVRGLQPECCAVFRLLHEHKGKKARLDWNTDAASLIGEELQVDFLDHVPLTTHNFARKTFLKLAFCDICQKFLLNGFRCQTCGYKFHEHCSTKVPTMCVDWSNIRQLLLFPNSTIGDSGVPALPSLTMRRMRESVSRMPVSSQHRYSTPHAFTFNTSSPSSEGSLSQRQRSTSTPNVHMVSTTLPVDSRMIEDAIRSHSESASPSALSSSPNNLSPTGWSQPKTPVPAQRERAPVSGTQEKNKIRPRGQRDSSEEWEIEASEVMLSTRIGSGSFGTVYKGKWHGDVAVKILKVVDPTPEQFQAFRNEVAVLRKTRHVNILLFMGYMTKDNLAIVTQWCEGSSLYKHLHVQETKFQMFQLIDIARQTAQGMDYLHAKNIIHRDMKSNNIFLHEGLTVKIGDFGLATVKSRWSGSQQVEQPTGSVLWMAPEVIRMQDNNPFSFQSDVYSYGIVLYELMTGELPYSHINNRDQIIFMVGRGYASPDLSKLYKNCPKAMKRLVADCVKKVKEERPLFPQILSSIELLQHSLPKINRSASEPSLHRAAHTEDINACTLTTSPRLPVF
# Target: C-Raf FL (full-length C-Raf protein, Y340E and Y341E activating mutations) (Homo sapiens (Human), UniProt P04049, Y340E/Y341E)
# Type: biochemical
# Details: AlphaScreen, 60 min pre-incubation, reaction 1 hour at room temperature; read-out: c-Raf FL IC-50
row,Structure (SMILES),IC50 [nM]
1,"Cc1ncc(NC(=O)c2ccnc(C(C)(F)F)c2)cc1-c1cc(N2CCOCC2)nc(N2CC(C)(O)C2)c1 [Example 1105, 2-(1,1-difluoroethyl)-N-(2′-(3-hydroxy-3-methylazetidin-1-yl)-2-methyl-6′-morpholino-[3,4′-bipyridin]-5-yl)isonicotinamide]",1.19
2,"Cc1ncc(NC(=O)c2ccnc(C(C)(C)F)c2)cc1-c1cc(N2CCOCC2)nc(N2CC(C)(O)C2)c1 [Example 1106, 2-(2-fluoropropan-2-yl)-N-(2′-(3-hydroxy-3-methylazetidin-1-yl)-2-methyl-6′-morpholino-[3,4′-bipyridin]-5-yl)isonicotinamide]",1.82
3,"Cc1ncc(NC(=O)c2cnnc(C(F)(F)F)c2)cc1-c1cc(N2CCOCC2)nc(N2CC(C)(O)C2)c1 [Example 1107, N-(2′-(3-hydroxy-3-methylazetidin-1-yl)-2-methyl-6′-morpholino-[3,4′-bipyridin]-5-yl)-6-(trifluoromethyl)pyridazine-4-carboxamide]",1.75
4,"Cc1ncc(NC(=O)c2ccnc(C(C)(C)C#N)c2)cc1-c1cc(N2CCOCC2)nc(N2CC(C)(O)C2)c1 [Example 1108, 2-(2-cyanopropan-2-yl)-N-(2′-(3-hydroxy-3-methylazetidin-1-yl)-2-methyl-6′-morpholino-[3,4′-bipyridin]-5-yl)isonicotinamide]",2.78
5,"Cc1ncc(NC(=O)c2ccnc(C3(C#N)CC3)c2)cc1-c1cc(N2CCOCC2)nc(N2CC(C)(O)C2)c1 [Example 1109, 2-(1-cyanocyclopropyl)-N-(2′-(3-hydroxy-3-methylazetidin-1-yl)-2-methyl-6′-morpholino-[3,4′-bipyridin]-5-yl)isonicotinamide]",1.45
6,"Cc1ccc(NC(=O)c2ccnc(C(C)(C)C#N)c2)cc1-c1cc(N2CCOCC2)nc(N2CC(C)(O)C2)c1 [Example 1110, 2-(2-cyanopropan-2-yl)-N-(3-(2-(3-hydroxy-3-methylazetidin-1-yl)-6-morpholinopyridin-4-yl)-4-methylphenyl)isonicotinamide]",0.75
7,"Cc1ccc(NC(=O)c2ccnc(C(F)(F)F)c2)cc1-c1cc(N2CCOCC2)nc(N2CCOCC2)c1 [Example 1112, N-(3-(2,6-dimorpholinopyridin-4-yl)-4-methylphenyl)-2-(trifluoromethyl)isonicotinamide]",0.24
8,"Cc1ccc(NC(=O)c2ccnc(C(C)(C)C#N)c2)cc1-c1cc(N2CCOCC2)nc(N2CCOCC2)c1 [Example 1113, 2-(2-cyanopropan-2-yl)-N-(3-(2,6-dimorpholinopyridin-4-yl)-4-methylphenyl)isonicotinamide]",0.37
9,"CCn1cc(C(=O)Nc2ccc(C)c(-c3cc(N4CCOCC4)nc(N4CCOCC4)c3)c2)cc(C(F)(F)F)c1=O [Example 1114, N-(3-(2,6-dimorpholinopyridin-4-yl)-4-methylphenyl)-1-ethyl-6-oxo-5-(trifluoromethyl)-1,6-dihydropyridine-3-carboxamide]",0.68
10,"Cc1ccc(NC(=O)c2ccnc(C(F)F)c2)cc1-c1cc(N2CCOCC2)nc(N2CCOCC2)c1 [Example 1115, 2-(difluoromethyl)-N-(3-(2,6-dimorpholinopyridin-4-yl)-4-methylphenyl)isonicotinamide]",0.19
11,"Cc1ccc(NC(=O)c2cccc(C(F)F)c2)cc1-c1cc(N2CCOCC2)nc(N2CCOCC2)c1 [Example 1116, 3-(difluoromethyl)-N-(3-(2,6-dimorpholinopyridin-4-yl)-4-methylphenyl)benzamide]",0.22
12,"Cc1ccc(NC(=O)c2ccnc(C(C)C)c2)cc1-c1cc(N2CCOCC2)nc(N2CCOCC2)c1 [Example 1117, N-(3-(2,6-dimorpholinopyridin-4-yl)-4-methylphenyl)-2-isopropylisonicotinamide]",0.3
13,"Cc1ccc(NC(=O)c2ccnc(S(C)(=O)=O)c2)cc1-c1cc(N2CCOCC2)nc(N2CCOCC2)c1 [Example 1118, N-(3-(2,6-dimorpholinopyridin-4-yl)-4-methylphenyl)-2-(methylsulfonyl)isonicotinamide]",0.3
14,"Cc1ncc(NC(=O)c2ccnc(C(C)C)c2)cc1-c1cc(N2CCOCC2)nc(N2CCOCC2)c1 [Example 1119, 2-isopropyl-N-(2-methyl-2′,6′-dimorpholino-[3,4′-bipyridin]-5-yl)isonicotinamide]",0.35
15,"Cc1ncc(NC(=O)c2ccnc(C(F)(F)F)c2)cc1-c1cc(N2CCOCC2)nc(N2CCOCC2)c1 [Example 1120, N-(2-methyl-2′,6′-dimorpholino-[3,4′-bipyridin]-5-yl)-2-(trifluoromethyl)isonicotinamide]",0.28
16,"Cc1ncc(NC(=O)c2cccc(C(F)F)c2)cc1-c1cc(N2CCOCC2)nc(N2CCOCC2)c1 [Example 1121, 3-(difluoromethyl)-N-(2-methyl-2′,6′-dimorpholino-[3,4′-bipyridin]-5-yl)benzamide]",0.26
17,"Cc1ncc(NC(=O)c2ccnc(C(F)F)c2)cc1-c1cc(N2CCOCC2)nc(N2CCOCC2)c1 [Example 1122, 2-(difluoromethyl)-N-(2-methyl-2′,6′-dimorpholino-[3,4′-bipyridin]-5-yl)isonicotinamide]",0.37
18,"Cc1ncc(NC(=O)c2ccnc(C(C)(C)C#N)c2)cc1-c1cc(N2CCOCC2)nc(N2CCOCC2)c1 [Example 1123, 2-(2-cyanopropan-2-yl)-N-(2-methyl-2′,6′-dimorpholino-[3,4′-bipyridin]-5-yl)isonicotinamide]",1.34

row,Structure (SMILES),IC50 [nM]
1,"Cc1ncc(NC(=O)c2ccnc(S(C)(=O)=O)c2)cc1-c1cc(N2CCOCC2)nc(N2CCOCC2)c1 [Example 1124, N-(2-methyl-2′,6′-dimorpholino-[3,4′-bipyridin]-5-yl)-2-(methylsulfonyl)isonicotinamide]",1.58
2,"CCn1cc(C(=O)Nc2cnc(C)c(-c3cc(N4CCOCC4)nc(N4CCOCC4)c3)c2)cc(C(F)(F)F)c1=O [Example 1125, 1-ethyl-N-(2-methyl-2′,6′-dimorpholino-[3,4′-bipyridin]-5-yl)-6-oxo-5-(trifluoromethyl)-1,6-dihydropyridine-3-carboxamide]",0.93
3,"Cc1ccc(NC(=O)c2ccnc(C(F)(F)F)c2)cc1-c1cc(-c2c(C)n[nH]c2C)nc(N2CCOCC2)c1 [Example 1127, N-(3-(2-(3,5-dimethyl-1H-pyrazol-4-yl)-6-morpholinopyridin-4-yl)-4-methylphenyl)-2-(trifluoromethyl)isonicotinamide]",0.38
4,"Cc1ccc(NC(=O)c2ccnc(C(F)(F)F)c2)cc1-c1cc(N2CCNCC2)nc(N2CCOCC2)c1 [Example 1128, N-(4-methyl-3-(2-morpholino-6-(piperazin-1-yl)pyridin-4-yl)phenyl)-2-(trifluoromethyl)isonicotinamide]",0.74
5,"Cc1ncc(NC(=O)c2cccc(C(F)(F)F)c2)cc1-c1cc(N2CCNCC2)nc(N2CCOCC2)c1 [Example 1129, N-(2-methyl-2′-morpholino-6′-(piperazin-1-yl)-[3,4′-bipyridin]-5-yl)-3-(trifluoromethyl)benzamide]",1.26
6,"Cc1ccc(NC(=O)c2ccnc(C(F)(F)F)c2)cc1-c1cc(N2CCOCC2)nc(N2CCC(O)C2)c1 (centres unmarked) [Example 1130, N-(3-(2-(3-hydroxypyrrolidin-1-yl)-6-morpholinopyridin-4-yl)-4-methylphenyl)-2-(trifluoromethyl)isonicotinamide]",0.67
7,"CCOc1cc(-c2cc(NC(=O)c3ccnc(C(F)(F)F)c3)ccc2C)cc(N2CCOCC2)n1 [Example 1133, N-(3-(2-ethoxy-6-morpholinopyridin-4-yl)-4-methylphenyl)-2-(trifluoromethyl)isonicotinamide]",0.3
8,Cc1ccc(NC(=O)c2cccc(C(F)(F)F)c2)cc1-c1ccnc(N2CCOCC2=O)c1 [Example 1134],0.82
9,"Cc1ncc(NC(=O)c2cccc(C(F)(F)F)c2)cc1-c1ccnc(N2CCOCC2=O)c1 [Example 1135, N-(2-methyl-2′-(3-oxomorpholino)-[3,4′-bipyridin]-5-yl)-3-(trifluoromethyl)benzamide]",7.35
10,"Cc1ncc(NC(=O)c2ccnc(C(C)C)c2)cc1-c1ccnc(N2CCOCC2)c1 [Example 1136, 2-isopropyl-N-(2-methyl-2′-morpholino-[3,4′-bipyridin]-5-yl)isonicotinamide]",0.58
11,"Cc1ncc(NC(=O)c2ccnc(C(C)(F)F)c2)cc1-c1cc(NCCO)nc(N2CCOC[C@H]2C)c1 [Example 1139, (R)-2-(1,1-difluoroethyl)-N-(2′-((2-hydroxyethyl)amino)-2-methyl-6′-(3-methylmorpholino)-[3,4′-bipyridin]-5-yl)isonicotinamide]",2.8
12,"Cc1ncc(NC(=O)c2ccnc(C(F)(F)F)c2)cc1-c1cc(NCCO)nc(N2CCOC[C@H]2C)c1 [Example 1140, (R)—N-(2′-((2-hydroxyethyl)amino)-2-methyl-6′-(3-methylmorpholino)-[3,4′-bipyridin]-5-yl)-2-(trifluoromethyl)isonicotinamide]",2.89
13,"Cc1ncc(NC(=O)c2ccnc(C(F)F)c2)cc1-c1cc(NCCO)nc(N2CCOC[C@H]2C)c1 [Example 1141, (R)-2-(difluoromethyl)-N-(2′-((2-hydroxyethyl)amino)-2-methyl-6′-(3-methylmorpholino)-[3,4′-bipyridin]-5-yl)isonicotinamide]",3.71
14,"CCOc1cc(-c2cc(NC(=O)c3ccnc(C(C)(C)F)c3)cnc2C)cc(N2CCOCC2)n1 [Example 1142, N-(2′-ethoxy-2-methyl-6′-morpholino-[3,4′-bipyridin]-5-yl)-2-(2-fluoropropan-2-yl)isonicotinamide]",1.1
15,"CCOc1cc(-c2cc(NC(=O)c3ccnc(C(C)(F)F)c3)cnc2C)cc(N2CCOCC2)n1 [Example 1143, 2-(1,1-difluoroethyl)-N-(2′-ethoxy-2-methyl-6′-morpholino-[3,4′-bipyridin]-5-yl)isonicotinamide]",0.54
16,"Cc1ccc(NC(=O)c2ccnc(C(C)(C)F)c2)cc1-c1cc(C2COCCO2)nc(N2CCOCC2)c1 (centres unmarked) [Example 1144, N-(3-(2-(1,4-dioxan-2-yl)-6-morpholinopyridin-4-yl)-4-methylphenyl)-2-(2-fluoropropan-2-yl)isonicotinamide]",0.46
17,Cc1ccc(NC(=O)c2ccnc(C(C)(F)F)c2)cc1-c1cc(C2COCCO2)nc(N2CCOCC2)c1 (centres unmarked) [Example 1145],0.4
